Entries after “also recorded” stand apart in the source; their conditions may differ.
Tested on: lung adenocarcinoma harboring MPRIP-NTRK1
Test: Treatment of the index patient (MPRIP-NTRK1 lung adenocarcinoma) with crizotinib
Type: in vivo, human
Conditions: crizotinib 250 mg twice daily, one patient

C[C@@H](Oc1cc(-c2cnn(C3CCNCC3)c2)cnc1N)c1c(Cl)ccc(F)c1Cl [crizotinib]
radiographic tumor response: tumor shrinkage; also recorded: minor radiographic response

Reference: patent US11578372B2, “NTRK1 fusion molecules and uses thereof” (FOUNDATION MEDICINE, INC., priority 2012, dated 2023)
